From patent publication US20130071496A1, “CONTROLLED RELEASE COMPOSITION CONTAINING A STRONTIUM SALT” (Osteologix A/S, priority 2003, published 2013)

Description: The solubility of the organic carboxylic acid strontium salts, were measured in water. The solubility of these salts was also measured as a function of temperature. This was performed by incubating the saturated solutions of the salts in temperature controlled incubators.
The buffered solutions were immersed into a bath of water temperature controlled at either room temperature (22-24° C.), at 30° C. or at 40° C. […] In order to eliminate any reminiscent strontium chloride influence on the determination of solubility, all the precipitate was collected at the bottom of the test tubes and the solutions above the precipitate were carefully removed and substituted by fresh solutions. […] From these solutions, the dissolved proportions of the strontium salt were collected in volumes of 1 mL at the specified temperature. […]
Two methods were used for quantification of strontium in solutions: Flame Atomic Absorption Spectrometry (F-AAS), and the more sensitive inductively-coupled-plasmamass spectrometry (ICP-MS).
The solubilities were investigated as described above, and strontium content in the saturated solutions determined as described here below.
Some of the very soluble strontium salts were further diluted before analysis by F-AAS. […] Strontium was measured at a slit with of 0.2 nm, the wavelength was 460.8 nm operated at an energy of 58 and a current of 8 mA. […]

With “strontium alpha-ketoglutarate [α-ketogluterate]” as the substance, how does the “SOLUBILITY AT 40° C., pH 7.5” value read?
Its value is 3809 mg/L.
